The record followed here is patent US9220705B2, “Method of treating colorectal cancer” (priority 2013, dated 2015).

The subject of data set [1] is panel of human tumor cell lines (A431, MCF-7, A375, HCT-15, SW480, CaCo-2, DLD-1). As to the kind of experiment: MTT cytotoxicity, comparison over the Table 1 panel. It counts as cell-based. The note with it: average over seven cell lines of Table 1. Here is the method:
(§1) After 24 h, the medium was removed and replaced with a fresh one containing the compound to be studied, at the appropriate concentration, dissolved in 0.9% sodium chloride solution just before use. Triplicate cultures were established for each treatment. After 72 h, each well was treated with […] of a 5 mg mL^−1 MTT saline solution and, after 5 h of incubation, 100 μL of a sodium dodecylsulfate (SDS) solution in 0.01 M HCl were added. After an overnight incubation, the inhibition of cell growth induced by the tested complexes was determined by measuring the absorbance of each well at 570 nm using a BioRad 680 microplate reader. Mean absorbance for each drug dose was expressed as percentage of the control and plotted vs. drug concentration. Dose-response curves were fitted and IC50 values were calculated with four parameter logistic model (4PL).
The cytotoxicity was evaluated by means of the MTT test for 72 h treatment with increasing concentrations of the tested compounds.

Data set [2] has as its system 2008/C13*, LoVo/LoVo-OXP, LoVo MDR. As to the kind of experiment: MTT cytotoxicity, comparison over the Table 2 cell lines. The settings on record: 2008 ovarian and LoVo colon sensitive cells. It is filed as cell-based, human. Here is the method:
as §1
A LoVo cell line retaining a multidrug resistance phenotype was also considered (LoVo MDR). Cross-resistance profiles were evaluated by means of the resistance factor (RF), which is defined as the ratio between the IC50 value for the resistant cells and that arising from the sensitive cells (Table 2).

For “(OC-6-33)-dichloro(cis-1,4-cyclohexanediamine-N,N′)dihydroxyplatinum [Compound 4]”, the “average cytotoxic activity compared with reference drugs” value in data set [1] is “lower than oxaliplatin but slightly higher than cisplatin”. In addition, the “cytotoxic activity towards sensitive lines compared with reference drugs” value in data set [2] was “less effective than oxaliplatin and cisplatin towards ovarian sensitive cell line and rather similar to cisplatin against LoVo colon cancer cells”.
